Columns and labels:
[1] = system: atrial myocytes from patients with chronic AF; conditions: cited from earlier work
[2] = target: T1, IKACh (Kir3.1/3.4) (Homo sapiens, UniProt P48544+P48549); test: Patch clamp of IKACh in Kir3.1/3.4 stably transfected HEK cells (GIRK cells), ramp protocol; type: cell-based
T1 construct: expressed in transfected cells; host or cells: HEK293 cells stably expressing Kir3.1/3.4 (GIRK cells)
T1 sequence (P48549 1-501): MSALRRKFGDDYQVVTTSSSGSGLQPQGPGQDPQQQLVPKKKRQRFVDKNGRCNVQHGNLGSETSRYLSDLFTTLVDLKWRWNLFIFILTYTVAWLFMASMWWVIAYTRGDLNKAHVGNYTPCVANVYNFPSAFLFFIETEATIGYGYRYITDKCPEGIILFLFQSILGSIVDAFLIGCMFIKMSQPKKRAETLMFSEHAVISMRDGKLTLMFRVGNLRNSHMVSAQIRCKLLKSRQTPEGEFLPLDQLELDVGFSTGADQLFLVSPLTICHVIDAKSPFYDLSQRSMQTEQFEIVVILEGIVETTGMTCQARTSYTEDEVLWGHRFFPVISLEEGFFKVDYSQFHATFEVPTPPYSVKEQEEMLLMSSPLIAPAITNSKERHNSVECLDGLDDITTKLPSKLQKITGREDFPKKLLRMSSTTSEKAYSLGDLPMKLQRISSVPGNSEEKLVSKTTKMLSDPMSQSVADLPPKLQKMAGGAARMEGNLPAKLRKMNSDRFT
T1 sequence (P48544 1-419): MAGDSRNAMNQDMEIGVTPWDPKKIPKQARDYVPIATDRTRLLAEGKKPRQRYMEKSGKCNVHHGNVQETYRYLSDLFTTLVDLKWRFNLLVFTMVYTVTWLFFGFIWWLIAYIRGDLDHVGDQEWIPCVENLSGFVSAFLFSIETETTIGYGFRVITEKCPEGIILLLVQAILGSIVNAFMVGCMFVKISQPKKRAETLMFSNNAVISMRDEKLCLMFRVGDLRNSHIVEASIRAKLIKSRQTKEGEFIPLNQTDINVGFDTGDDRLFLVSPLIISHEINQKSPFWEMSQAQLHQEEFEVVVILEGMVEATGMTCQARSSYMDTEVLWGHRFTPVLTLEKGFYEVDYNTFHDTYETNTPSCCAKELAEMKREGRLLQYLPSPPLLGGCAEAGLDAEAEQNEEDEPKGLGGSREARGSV

[3] = system: cholinergic AF; conditions: cited from earlier work
[4] = system: atrial action potential in a normal heart; conditions: cited from earlier work
[5] = target: T2, IKACh (Homo sapiens, UniProt P48544+P48549); conditions: cited from earlier work
T2 sequence (P48549 1-501): T1 sequence (P48549 1-501)
T2 sequence (P48544 1-419): T1 sequence (P48544 1-419)

[6] = target: T3, Kir3.1/Kir3.4 (Homo sapiens, UniProt P48544+P48549); test: Flow cytometry of fluorescently labeled TertiapinQ binding in unpermeabilized HEK cells stably transfected with Kir3.1/3.4
T3 construct: expressed in transfected cells; host or cells: HEK293 cells stably expressing Kir3.1/3.4 (GIRK cells)
T3 sequence (P48549 1-501): T1 sequence (P48549 1-501)
T3 sequence (P48544 1-419): T1 sequence (P48544 1-419)

CC[C@H](C)[C@@H]1NC(=O)[C@H](CCCNC(=N)N)NC(=O)[C@H](CC(N)=O)NC(=O)[C@@H]2CSSC[C@@H](C(=O)NCC(=O)N[C@@H](CCCCN)C(=O)N[C@@H](CCCCN)C(N)=O)NC(=O)[C@H](CCCCN)NC(=O)[C@H](CCCCN)NC(=O)[C@H](Cc3c[nH]c4ccccc34)NC(=O)[C@H](CSSC[C@H](NC(=O)[C@H](CC(C)C)NC(=O)[C@H](C)N)C(=O)N[C@@H](CC(N)=O)C(=O)N2)NC(=O)[C@H](CCC(N)=O)NC(=O)[C@H](Cc2c[nH]cn2)NC(=O)[C@@H]2CCCN2C(=O)[C@H]([C@@H](C)CC)NC(=O)[C@H]([C@@H](C)CC)NC1=O [TertiapinQ]
Action potential duration in atrial myocytes from patients with chronic AF [1]: prolong | IC50 [2]: 70 nM | Effect on basal, muscarinic stimulation independent, barium sensitive current ([2]; 50 nM, 50 mM extracellular K+): decreased | Hill coefficient of IKACh block dose response curve ([2]; patch clamp, HEK Kir3.1/3.4 cells, n=5): 1.2 | Effect on cholinergic AF [3]: terminate | Effect on ventricular electrophysiology [3]: without affecting | Effect on the atrial action potential in a normal heart [4]: only minor effects | Effect on constitutively active IKACh [5]: inhibit | IC50 [6]: 11 nM | Hill coefficient of TertiapinQ fluorescence dose response curve ([6]; flow cytometry, HEK Kir3.1/3.4 cells): 1.7

— patent US11014971B2, “Peptibodies, compositions thereof, and methods of treating atrial fibrillation” (University of South Florida, priority 2016, dated 2021)
